Assay results from patent US20100129478A1, “Plant Extracts and Methods and Uses Therefore” (priority 2005, published 2010).

Tested on: 3T3-L1 adipocytes
Assay: Glucose uptake assay (tritiated deoxyglucose uptake by 3T3-L1 adipocytes)
Type: cell-based
Conditions: for Stimulation Index: (mean of sample − mean of cells alone)/mean of cells alone; for cpm Average (glucose up-take): average of Sets I-III
Method: The deoxy-glucose uptake assay by fat cells or adipoctes (3T3-L1) help to identify the extracts/bioactives that helps to increase the glucose uptake by the fat cells.
Tritiated deoxyglucose uptake by 3T3-L1 is one of the most accepted assay for the in-vitro screening of active principles with anti-diabetic activity
3T3-L1 fibroblasts were cultured in DME-F12 media containing 10% FCS, NEAA, glutamine, antibiotics, anti-mycotics, etc., in an atmosphere of 5% CO2 at 37° C. Fibroblasts were cultured up to confluency. Subcultures were done at three-day intervals with trypsin-EDTA solution treatment.
Differentiation was induced by treating the cells with DMEM hi glucose (4.5 gm/litre) containing 0.5 mmol/l 3-isobutyl-1-methylxanthine, 4 mg/ml dexamethasone, 1 mg/ml insulin and 10% FCS for 48 h. The cells were cultured in DMEM media with standard pre-described supplements for the next 6-10 days. […] These were taken up for glucose uptake studies with tritiated glucose.
Distribute 50,000 of differentiated 3T3-L1 adipocytes in each well of a new 96 well plate. Incubate with KRH buffer at 37° C. for 10 min. Add insulin 10 nM, 25 nM and 50 nM to the respective. To the experimental sets treatment was done with or without insulin 10 nM in presence of test compound (333.0 μg). This was followed by incubation further at 37° C. for 15 min. Wash the cells once with KRH buffer. Initiate glucose uptake reaction by adding 0.1 mM 2-deoxy glucose containing 2-deoxy[3H] glucose (final concentration 12.2 kBq/ml). Incubate for 1 hr at 37° C. Terminate assay by adding 40 μM Cytochalasin B. Wash the cells trice with ice-cold KRH buffer Solubilize cells in 20 μl 1% Triton X. Incubate for 10 min at 37° C. Count radioactivity on a micro-titre plate radioactive counter
Glucose uptake activity was analyzed by measuring the uptake of 0.1 mM deoxy-glucose containing deoxy-tritiated-glucose containing 2.2 kBq/mL.

insulin
Stimulation Index (Insulin 10 nM): 2.6
cpm Set I (glucose up-take) (Insulin 10 nM): 2185.8 cpm
cpm Set II (glucose up-take) (Insulin 10 nM): 1705.4 cpm
cpm Set III (glucose up-take) (Insulin 10 nM): 3010.7 cpm
cpm Average (glucose up-take) (Insulin 10 nM): 2300.63 cpm
Stimulation Index (Insulin 25 nM): 2.8
cpm Set I (glucose up-take) (Insulin 25 nM): 4806.8 cpm
cpm Set II (glucose up-take) (Insulin 25 nM): 1399.7 cpm
cpm Set III (glucose up-take) (Insulin 25 nM): 996.7 cpm
cpm Average (glucose up-take) (Insulin 25 nM): 2401.07 cpm
Stimulation Index (Insulin 100 nM): 3.7
cpm Set I (glucose up-take) (Insulin 100 nM): 2906.5 cpm
cpm Set II (glucose up-take) (Insulin 100 nM): 3776.6 cpm
cpm Set III (glucose up-take) (Insulin 100 nM): 2215.6 cpm
cpm Average (glucose up-take) (Insulin 100 nM): 2966.23 cpm
